{
  "sequences": {"note": "Sequences of proteins named here, by UniProt entry; tags and fusion partners are left off. Residues count along the entry.", "UniProt Q05941, 23-502 limits assumed": "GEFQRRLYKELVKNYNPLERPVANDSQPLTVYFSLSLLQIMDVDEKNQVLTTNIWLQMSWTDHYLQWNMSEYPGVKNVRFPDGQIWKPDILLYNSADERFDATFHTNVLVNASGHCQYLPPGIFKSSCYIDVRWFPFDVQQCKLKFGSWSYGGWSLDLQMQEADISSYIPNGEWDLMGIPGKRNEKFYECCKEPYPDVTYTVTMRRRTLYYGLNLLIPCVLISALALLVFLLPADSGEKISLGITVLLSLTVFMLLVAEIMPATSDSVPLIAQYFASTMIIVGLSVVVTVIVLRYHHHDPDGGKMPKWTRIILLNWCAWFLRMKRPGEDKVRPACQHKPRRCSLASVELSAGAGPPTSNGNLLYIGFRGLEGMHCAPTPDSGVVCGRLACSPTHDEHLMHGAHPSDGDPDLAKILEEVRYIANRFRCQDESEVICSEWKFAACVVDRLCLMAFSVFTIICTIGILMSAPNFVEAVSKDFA"},
  "source": "patent US7566727B2",
  "about": "“2-(1-aza-bicyclo[2.2.2]oct-3-yl)-2,3-dihydro-isoindole-1-one/5,6-dihydro-furo[2,3-c] pyrrol-4-one derivative ligands for alpha 7 nicotinic acetylcholine receptor” (priority 2004, dated 2009)",
  "target": "α7 nAChR subtype (Rattus norvegicus, UniProt Q05941)",
  "settings": "read-out: α7 Ki; [125I]α-BTX displacement, rat hippocampal membranes",
  "data": [
    {"smiles": "CCCC(=O)Nc1cccc(-c2ccc3c(c2)C(=O)N([C@H]2CN4CCC2CC4)C3)c1", "values": [
      {"measurement": "Ki", "result": 4.5, "unit": "nM"}
    ]}
  ]
}
